Measurements published in patent publication US6143715A, “Hepatitis C inhibitor peptide analogues” (priority 1998, dated 2000).
pIC50: −log10 of the molar value. Where two headings read alike, the source gives them in different places.

Protein sequences, listed by entry. Tags and fused reporters are not part of them. Residues count along the entry.
UniProt P26663, 1027-1206: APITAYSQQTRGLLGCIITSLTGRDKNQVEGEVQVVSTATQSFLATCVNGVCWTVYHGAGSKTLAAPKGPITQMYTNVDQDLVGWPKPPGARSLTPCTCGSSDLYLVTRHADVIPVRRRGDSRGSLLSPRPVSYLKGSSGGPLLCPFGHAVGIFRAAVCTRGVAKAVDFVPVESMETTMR
UniProt P00772, 27-266: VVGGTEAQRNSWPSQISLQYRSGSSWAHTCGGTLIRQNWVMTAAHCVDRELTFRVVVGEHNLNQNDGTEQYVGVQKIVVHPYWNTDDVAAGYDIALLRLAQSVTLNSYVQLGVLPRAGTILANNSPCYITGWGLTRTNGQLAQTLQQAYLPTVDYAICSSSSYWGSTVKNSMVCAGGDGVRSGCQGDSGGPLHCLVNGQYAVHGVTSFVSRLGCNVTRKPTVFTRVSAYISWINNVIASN

How the values were obtained:
[1] = target: T1, HCV NS3 protease type 1b/NS4A cofactor peptide (Hepatitis C virus genotype 1b, UniProt P26663); assay: biochemical; set-up: species or system hepatitis C virus (HCV) genotype 1b
T1 construct: recombinant HCV NS3 protease (amino acid 1027 to 1206) was cloned; made in house; host or cells: E. coli BL21(DE3)pLysS
Text: a) Cloning, expression and purification of the recombinant HCV NS3 protease type lb
Serum from an HCV-infected patient was obtained through an external collaboration (Bernard Willems MD, Hopital St-Luc, Montreal, Canada and Dr. Donald Murphy, Laboratoire de Sante Publique du Quebec, Ste-Anne de Bellevue, Canada). An engineered full-length cDNA template of the HCV genome was constructed from DNA fragments obtained by reverse transcription-PCR (RT-PCR) of serum RNA and using specific primers selected on the basis of homology between other genotype lb strains. […] A DNA fragment encoding the polyprotein precursor (NS3/NS4A/NS4B/NS5A/NS5B) was generated by PCR and introduced into eucaryotic expression vectors.
The NS3 protease expression in E. coli BL21(DE3)pLysS was induced by incubation with 1 mM IPTG for 3 h at 22° C. […] The cells were resuspended in lysis buffer (3.0 mL/g) consisting of 25 mM sodium phosphate, pH 7.5, 10% glycerol (v/v), 1 mM EDTA, 0.01% NP-40 and stored at -80° C. Cells were thawed and homogenized following the addition of 5 mM DTT. Magnesium chloride and DNase were then added to the homogenate at final concentrations of 20 mM and 20 μg/mL respectively. After a 25 min incubation at 4° C., the homogenate was sonicated and centrifuged at 15000× g for 30 min at 4° C. The pH of the supernatant was then adjusted to 6.5 using a 1M sodium phosphate solution.
Briefly, the supernatant from the bacterial extract was loaded on a SP HiTrap column (Pharmacia) previously equilibrated at a flow rate of 2 mL/min in buffer A (50 mM sodium phosphate, pH 6.5, 10% glycerol, 1 mM EDTA, 5 mM DTT, 0.01% NP-40). The column was then washed with buffer A containing 0.15 M NaCl and the protease eluted by applying 10 column volumes of a linear 0.15 to 0.3 M NaCl gradient. NS3 protease-containing fractions were pooled and diluted to a final NaCl concentration of 0.1 M. The enzyme was further purified on a HiTrap Heparin column (Pharmacia) equilibrated in buffer B (25 mM sodium phosphate, pH 7.5, 10% glycerol, 5 mM DTT, 0.01% NP-40). The sample was loaded at a flow rate of 3 mL/min. The column was then washed with buffer B containing 0.15 M NaCl at a flow rate of 1.5 mL/min. Two step washes were performed in the presence of buffer B containing 0.3 or 1M NaCl. […] Finally, the NS3 protease-containing fractions were applied on a Superdex 75 HiLoad 16/60 column (Pharmacia) equilibrated in buffer B containing 0.3 M NaCl.
The enzyme was stored at -80° C. and was thawed on ice and diluted just prior to use.
Recombinant HCV NS3 Protease/NS4A Cofactor Peptide Radiometric Assay
The enzyme was stored at -80° C., thawed on ice and diluted just prior to use in the assay buffer containing the NS4A cofactor peptide. […]

[2] = target: porcine pancreatic elastase (Sus scrofa, UniProt P00772); assay: Specificity assay, porcine pancreatic elastase (pNA substrate); type: biochemical; conditions: 1 h enzyme-inhibitor pre-incubation at 30° C., Succ-AAA-pNA; read-out: PPE: concentration required to obtain 50% inhibition in the porcine pancreatic elastase assay
[3] = IC50: concentration required to obtain 50% inhibition in the NS3 protease/NS4A cofactor peptide radiometric assay, enzyme:cofactor 1:100, 40 min at 23° C.

Row | Compound | pIC50 [1, 3] | pIC50 [1] | pIC50 [2]
1 | CCCCN(NC(=O)[C@@H]1C[C@@H](OCc2ccccc2)CN1C(=O)[C@@H](NC(=O)[C@@H](NC(=O)[C@@H](CCC(=O)O)NC(=O)[C@H](CC(=O)O)NC(C)=O)[C@@H](C)CC)C(C)C)C(=O)N[C@@H](C)c1ccccc1 [Compound 210] | 7.07 | – | –
2 | CCCN(NC(=O)[C@@H]1C[C@@H](OCc2ccccc2)CN1C(=O)[C@@H](NC(=O)[C@@H](NC(=O)[C@@H](CCC(=O)O)NC(=O)[C@H](CC(=O)O)NC(C)=O)[C@@H](C)CC)C(C)C)C(=O)N[C@H](C)c1ccccc1 [Compound 204] | – | 5.38 | –
3 | CC[C@H](C)[C@H](NC(=O)[C@@H](CCC(=O)O)NC(=O)[C@H](CC(=O)O)NC(C)=O)C(=O)N[C@H](C(=O)N1C[C@H](OCc2ccccc2)C[C@H]1C(=O)NN(CC)C(=O)N[C@@H](C)c1ccccc1)C(C)C [Compound 213] | 7.10 | – | –
4 | CCCN(NC(=O)[C@@H]1C[C@@H](OCc2ccccc2)CN1C(=O)[C@@H](NC(=O)[C@@H](NC(=O)[C@@H](CCC(=O)O)NC(=O)[C@H](CC(=O)O)NC(C)=O)[C@@H](C)CC)C(C)C)C(=O)N[C@@H](C)c1ccccc1 [Compound 205] | 7.11 | – | 5.39
